Patent publication US20080248097A1, “POLYMERIC MICELLES FOR COMBINATION DRUG DELIVERY” (priority 2007, published 2008)

Tests used:
tumor = assay: Cancer treatment efficacy and toxicity in tumor-bearing mice (Table 2, therapeutic window); conditions: for Toxic Death: deaths/animals
[1] = Biodistribution and plasma levels in tumor-bearing mice; conditions: 10 mg/kg (DOX equivalent), CDF1 mice

In the case of “poly(ethylene glycol)poly(aspartate-hydrazone-adriamycin) [DOX-Micelle]”, the “Weight change on day 30 (%)” value (tumor; dose 5 mg/kg) is reported as −0.89 ± 1.68%, the “Toxic Death” value (tumor; dose 5 mg/kg) is reported as 0/6 and the “Weight change on day 30 (%)” value (tumor; dose 10 mg/kg) is reported as −4.51 ± 1.44%. The “Toxic Death” value (tumor; dose 10 mg/kg) was 0/6, the “Weight change on day 30 (%)” value (tumor; dose 20 mg/kg) was 3.13 ± 1.60% and the “Toxic Death” value (tumor; dose 20 mg/kg) was 0/6. The “Weight change on day 30 (%)” value (tumor; dose 40 mg/kg) was −4.07 ± 0.92%, the “Toxic Death” value (tumor; dose 40 mg/kg) was 0/6 and the “dose remained in the blood” value ([1]; after 24 hours) was 17%. For the same substance, the “accumulation in tumors, higher than doxorubicin” value ([1]; after 48 hours) was 11 fold, the “stability of micelles (ADR release)” value (over 72 hours, region A: physiological and early endosomal pH conditions) was “stable” and the “ADR release from micelles” value (pH decreasing from 7.4 to 3.0) was “time- and pH-dependently”.
